Results as given in BindingDB's records for doi:10.1021/acs.jmedchem.5b01110 (Mayo Clinic, 2015).

By UniProt entry, the sequences of proteins in these tests, tags left out.
UniProt P32238, whole entry W326A: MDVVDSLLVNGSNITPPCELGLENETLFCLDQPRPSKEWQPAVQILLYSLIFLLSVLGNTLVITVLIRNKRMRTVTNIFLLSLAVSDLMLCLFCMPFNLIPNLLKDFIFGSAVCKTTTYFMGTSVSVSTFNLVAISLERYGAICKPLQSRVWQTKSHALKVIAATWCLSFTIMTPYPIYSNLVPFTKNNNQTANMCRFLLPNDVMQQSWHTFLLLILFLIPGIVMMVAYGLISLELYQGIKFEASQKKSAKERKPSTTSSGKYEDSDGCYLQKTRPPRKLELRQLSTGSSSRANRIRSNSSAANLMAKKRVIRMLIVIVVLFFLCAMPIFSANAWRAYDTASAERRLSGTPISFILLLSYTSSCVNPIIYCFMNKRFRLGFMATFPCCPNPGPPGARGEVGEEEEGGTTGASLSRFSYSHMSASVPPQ
UniProt P32238, whole entry: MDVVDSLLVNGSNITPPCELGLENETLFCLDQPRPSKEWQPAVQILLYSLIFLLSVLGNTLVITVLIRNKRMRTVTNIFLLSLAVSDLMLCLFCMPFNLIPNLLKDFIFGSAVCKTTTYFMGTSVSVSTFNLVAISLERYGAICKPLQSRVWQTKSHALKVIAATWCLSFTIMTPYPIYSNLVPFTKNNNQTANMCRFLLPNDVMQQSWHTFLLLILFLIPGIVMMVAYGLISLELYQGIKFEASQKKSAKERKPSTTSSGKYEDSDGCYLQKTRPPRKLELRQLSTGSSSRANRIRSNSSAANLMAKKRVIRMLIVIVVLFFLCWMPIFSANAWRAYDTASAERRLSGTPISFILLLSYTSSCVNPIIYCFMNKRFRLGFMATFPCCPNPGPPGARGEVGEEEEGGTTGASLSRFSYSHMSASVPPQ
UniProt P32238, whole entry L356H: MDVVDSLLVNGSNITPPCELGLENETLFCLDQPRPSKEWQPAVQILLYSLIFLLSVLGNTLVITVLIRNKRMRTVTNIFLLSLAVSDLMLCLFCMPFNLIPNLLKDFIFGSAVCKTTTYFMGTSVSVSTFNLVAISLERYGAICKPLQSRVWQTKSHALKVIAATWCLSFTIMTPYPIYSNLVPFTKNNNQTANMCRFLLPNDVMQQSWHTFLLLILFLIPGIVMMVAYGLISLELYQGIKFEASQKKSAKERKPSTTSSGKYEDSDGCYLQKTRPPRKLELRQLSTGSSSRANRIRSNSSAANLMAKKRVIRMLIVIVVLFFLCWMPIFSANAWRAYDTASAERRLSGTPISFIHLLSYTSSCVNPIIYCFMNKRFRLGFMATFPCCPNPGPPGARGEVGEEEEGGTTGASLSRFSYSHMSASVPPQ

Tests used:
[1] = molecular target: T1, Gastrin/cholecystokinin type B receptor (Homo sapiens, UniProt P32239); test: Displacement of [125I-CCK] from human CCK2R V6.51I, Y6.52F mutant expressed in CHO cells after 60 mins by scintillation counter
T1 sequence (P32239 whole entry): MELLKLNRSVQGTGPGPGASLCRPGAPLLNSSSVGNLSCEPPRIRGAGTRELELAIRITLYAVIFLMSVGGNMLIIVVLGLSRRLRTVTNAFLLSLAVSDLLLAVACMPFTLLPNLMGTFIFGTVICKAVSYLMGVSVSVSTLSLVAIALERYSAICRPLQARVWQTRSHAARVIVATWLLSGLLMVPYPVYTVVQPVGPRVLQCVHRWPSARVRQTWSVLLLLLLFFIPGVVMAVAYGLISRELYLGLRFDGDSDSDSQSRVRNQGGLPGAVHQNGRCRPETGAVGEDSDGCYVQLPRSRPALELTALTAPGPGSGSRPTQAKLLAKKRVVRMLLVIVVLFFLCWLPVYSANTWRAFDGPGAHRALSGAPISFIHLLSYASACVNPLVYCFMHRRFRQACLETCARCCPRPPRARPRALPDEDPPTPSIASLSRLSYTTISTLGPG

[2] = molecular target: T1, Gastrin/cholecystokinin type B receptor; test: Displacement of [125I-BDZ-2] from human CCK2R V3.28T, S3.29T mutant expressed in CHO cells after 60 mins by scintillation counter
[3] = molecular target: T1, Gastrin/cholecystokinin type B receptor; test: Displacement of [125I-BDZ-2] from human CCK2R V6.51I, Y6.52F mutant expressed in CHO cells after 60 mins by scintillation counter
[4] = molecular target: T1, Gastrin/cholecystokinin type B receptor; test: Displacement of [125I-CCK] from human CCK2R T2.61N mutant expressed in CHO cells after 60 mins by scintillation counter
[5] = molecular target: T1, Gastrin/cholecystokinin type B receptor; test: Displacement of [125I-CCK] from wild-type human CCK2R expressed in CHO cells after 60 mins by scintillation counter
[6] = molecular target: Cholecystokinin receptor type A (Homo sapiens, UniProt P32238, W326A); test: Agonist activity at human CCK1R W6.48A mutant expressed in CHO cells assessed as intracellular calcium response by fluorescence analysis
[7] = molecular target: Cholecystokinin receptor type A (Homo sapiens, UniProt P32238); test: Displacement of [125I-BDZ-1] from wild-type human CCK1R expressed in CHO cells after 60 mins by scintillation counter
[8] = molecular target: Cholecystokinin receptor type A (Homo sapiens, UniProt P32238, L356H); test: Agonist activity at human CCK1R L7.39H mutant expressed in CHO cells assessed as intracellular calcium response by fluorescence analysis
[9] = molecular target: T1, Gastrin/cholecystokinin type B receptor; test: Agonist activity at human CCK2R V6.51I, Y6.52F mutant expressed in CHO cells assessed as intracellular calcium response by fluorescence analysis
[10] = molecular target: T1, Gastrin/cholecystokinin type B receptor; test: Agonist activity at human CCK2R H7.39L mutant expressed in CHO cells assessed as intracellular calcium response by fluorescence analysis

CC(C)N(Cc1ccccc1)C(=O)CN1C(=O)[C@@H](Cc2c[nH]c3ccccc23)c2nnc(-c3ccccc3)n2-c2ccccc21 [2-((4S)-4-((1H-indol-3-yl)methyl)-5-oxo-1-phenyl-4H-benzo[b][1,2,4]triazolo[4,3-d][1,4]diazepin-6(5H)-yl)-N-benzyl-N-isopropylacetamide]
IC50 [1]: < 1000 nM
IC50 [2]: < 1000 nM
IC50 [3]: < 1000 nM
IC50 [4]: < 1000 nM
Ki [5]: < 1000 nM
EC50 [6]: < 100 nM

Cc1cc(C)cc(C[C@H]2CCCCN2C(=O)CN2C(=O)[C@@H](Cc3n[nH]c4ccccc34)c3nnc(-c4ccccc4)n3-c3ccccc32)c1
Ki [7]: < 1000 nM
IC50 [1]: < 1000 nM
IC50 [2]: < 1000 nM
EC50 [8]: < 100 nM
IC50 [3]: < 1000 nM
IC50 [4]: < 1000 nM
EC50 [9]: < 1000 nM
EC50 [10]: < 1000 nM
